{"source": "ChEMBL document CHEMBL5727255", "about": "“Treatment of inflammatory disorders in non-human mammals” (2019)", "key": {"[1]": {"assay": "Inhibition Assay: The enzyme also can be detected based on the binding of specific ligands to the catalytic site which either immobilize the enzyme or label it with a probe such as dansyl, fluoracein, luciferase, green fluorescent protein or other reagent. The enzyme can be assayed by its hydration of EETs, its hydrolysis of an epoxide to give a colored product. The assays are normally carried out"}, "[2]": {"assay": "Inhibition Assay: The enzyme also can be detected based on the binding of specific ligands to the catalytic site which either immobilize the enzyme or label it with a probe such as dansyl, fluoracein, luciferase, green fluorescent protein or other reagent. The enzyme can be assayed by its hydration of EETs, its hydrolysis of an epoxide to give a colored product. The assays are normally carried out", "remark": "listed apart in the source"}}, "note": "Where “and” joins values, the source holds several entries; their conditions need not be identical. Equal entries are not always repeated.", "data": [{"smiles": "O=C(Nc1ccc(OC(F)(F)F)cc1)NC1CCC(Oc2ccc(C(=O)O)cc2)CC1", "note": "(configuration not stated)", "values": [{"measurement": "IC50", "setting": "[1]", "result": "5 nM and 1 nM"}, {"measurement": "IC50", "setting": "[2]", "result": "1 nM and 6 nM"}]}]}
